Data as given in ChEMBL document CHEMBL1124142, “N6-[2-(3,5-dimethoxyphenyl)-2-(2-methylphenyl)ethyl]adenosine and its uronamide derivatives. Novel adenosine agonists with both high affinity and high selectivity for the adenosine A2 receptor” (J Med Chem, 1988).

By UniProt entry, the sequences of proteins in these tests, tags left out.
UniProt P25099, whole entry: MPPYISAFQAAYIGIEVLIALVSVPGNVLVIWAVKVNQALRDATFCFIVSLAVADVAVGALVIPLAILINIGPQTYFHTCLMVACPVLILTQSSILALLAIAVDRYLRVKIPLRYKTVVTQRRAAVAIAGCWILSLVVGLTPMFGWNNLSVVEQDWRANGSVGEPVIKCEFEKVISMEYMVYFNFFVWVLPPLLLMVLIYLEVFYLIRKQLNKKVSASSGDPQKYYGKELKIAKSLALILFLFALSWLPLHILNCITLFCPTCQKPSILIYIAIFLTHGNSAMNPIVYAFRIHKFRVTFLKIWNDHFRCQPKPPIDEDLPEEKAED

Target: Adenosine receptor A1 (Rattus norvegicus, UniProt P25099)
Assay: biochemical

Ki: 5.2 nM
SMILES: OC[C@H]1O[C@@H](n2cnc3c(NCC4c5ccccc5-c5ccccc54)ncnc32)[C@H](O)[C@@H]1O
